# Assay results from patent publication US4728509A, “Aqueous liquid preparation” (Takeda Chemical Industries, Ltd., priority 1985, dated 1988).
# Test: Solubility test of compound (a) with and without solubilizers (Experimental Example 1; HPLC of filtrate)
# Settings: in words; substance used as solubilizer
substance,measurement,value
nicotinic acid [reference compound],effect for improving the solubility of compound (a),some improvement
